Yeast mating assay 2: variants of the scFv Ab-95

Data: MIT Lincoln Laboratory AlphaSeq set, Engelhart et al. 2022, doi:10.1038/s41597-022-01779-4, as distributed in FLAb.

Antigen: PDVDLGDISGINAS, a 14-residue peptide of the SARS-CoV-2 spike HR2 region.

Ab-95 is the parent antibody, in scFv form: VH, then the linker GGGGSGGGGSGGGGS, then VL. The heavy chain is unchanged in all variants.
VH: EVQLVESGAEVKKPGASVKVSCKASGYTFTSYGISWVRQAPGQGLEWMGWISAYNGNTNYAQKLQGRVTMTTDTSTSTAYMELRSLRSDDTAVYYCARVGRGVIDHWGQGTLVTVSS
VL: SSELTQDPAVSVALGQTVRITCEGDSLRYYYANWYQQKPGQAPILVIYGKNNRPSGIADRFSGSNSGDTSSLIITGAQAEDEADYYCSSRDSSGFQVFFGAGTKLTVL

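Phage display of a naive human antibody library on the peptide gave the parent. Variants in AAYL52 differ from the parent at up to three CDR positions; double and triple changes were sampled at random. In AlphaSeq, yeast of one mating type display the scFv and yeast of the other type display the target. After mating in shaken culture at 30 °C for 16 h, diploids were selected and their barcode pairs sequenced. Each replicate has its own calibration line, from reference interactions of the BCL2 family. Each pool was mated in three replicate cultures.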

Variants are written as CDR1, CDR2 and CDR3 of the light chain (limits as in the source). Parent: EGDSLRYYYAN, GKNNRPS, SSRDSSGFQVF.
Scale: log10 of Kd in nM, estimated from mating counts; low values are strong binders.
A pair that was not seen in that replicate is written "nd"; this usually means weak binding, but a binder can also be missed.

Variant EGDNLRYYYAN / GKNNRPS / SSIDSCGFQVF showed nd, 3.51, nd (controls 2 of 9).
Variant EGDSLRYYYAN / GANNRPI / MSRDSSGFQVF showed 2.03, 1.99, 1.85 (controls 1 of 9).
Variant EGDSLNYYYAN / GKINRPS / SSRDSSGFQVL showed nd, 3.39, nd (controls 3 of 9).
Variant VGDSLRYIYAN / GKNNRPS / SSRDSSGCQVF showed 3.75, 2.90, 3.16 (controls 2 of 9).
Variant EGDSLRGYYAN / GKNNRPS / SSRWSSGFQVF showed nd, 4.27, nd (controls 1 of 9).
Variant EGDSLRYYYAN / GKNNRPS / SSRDSSFFQVF showed 2.14, 2.26, 2.49 (controls 3 of 9).
Variant EGDSLRYYYTN / GKNNRPD / SSRDSDGFQVF showed 3.18, 3.49, 4.33 (controls 1 of 9).
Variant EGDILRYYYAN / GKNNRPS / SSRDRSGFQVF showed 3.11, 3.00, 3.48 (controls 4 of 9).
Variant EGDSLRYYYAN / GANNRPT / SMRDSSGFQVF showed 3.88, 3.89, nd (controls 2 of 9).
Variant EGDSHRYYYAN / GKQNRPS / SSRDSSGFQVW showed 3.56, 4.61, nd (controls 3 of 9).
Variant EGLSLRYYYAN / GKNNCPS / SSRDSTGFQVF showed 4.46, nd, nd (controls 1 of 9).
Variant ERDSLRYYYAN / GQNNRPS / SGRDSSGFQVF showed 2.64, 2.78, 3.28 (controls 1 of 9).
Variant EGDSLVYMSAN / GKNNRPS / SSRDSSGFQVF showed 2.66, 2.24, 2.32 (controls 2 of 9).
Variant VGASLRYYTAN / GKNNRPS / SSRDSSGFQVF showed 2.32, 2.55, 2.60 (controls 2 of 9).
Variant EGDSLAYYYAN / SKNNRPS / SSRDSSGFQVS showed 3.09, 4.11, nd (controls 1 of 9).
Variant EGDSRRYYYAN / GCNNRPS / SSRTSSGFQVF showed 4.11, 3.57, 3.12 (controls 6 of 9).
Variant EGDSLRYYYAN / GLNNRPD / SSRDSSEFQVF showed 2.22, 2.37, 1.76 (controls 4 of 9).
Variant EGDSLSYYYAN / GKNNRPS / SSADSSGFQVF showed 2.08, 1.72, 2.01 (controls 1 of 9).
Variant EGDSLRYYYAN / GVNNTPS / SSRDSSGFLVF showed 3.33, nd, nd (controls 5 of 9).
Variant EGDSLRYYCAN / GKNNRPS / SIRDSGGFQVF showed 2.30, 2.88, 2.11 (controls 4 of 9).
Variant EGDSLRYYYAN / GKNNRGS / SSRTSYGFQVF showed 3.48, 4.16, 3.09 (controls 1 of 9).
Variant EGDSLRYVYAN / GKNNRPS / SSRDSSGFQVF showed 1.91, 1.52, 1.29 (controls 3 of 9).
Variant EGFSLRYYYAN / GKNNRPS / SSRSSSGFQVC showed 3.48, 2.82, 3.50 (controls 4 of 9).
Variant EMDSLRYYYAN / AKNYRPS / SSRDSSGFQVF showed 3.96, 4.26, 4.58 (controls 2 of 9).
Variant EFDSGRNYYAN / GKNNRPS / SSRDSSGFQVF showed 2.62, 2.53, 2.70 (controls 2 of 9).
Variant EGDSLRLYYAN / GKTNRPK / SSRDSSGFQVF showed nd, 4.36, 4.92 (controls 4 of 9).
Variant EQDSLRYYYAN / GLNNRPS / SSRDSSGFMVF showed 4.27, 3.44, 4.19 (controls 3 of 9).
Variant EGDRLRYYYAN / GKNNRPS / SSWDSSGFQVF showed 3.02, nd, nd (controls 3 of 9).
Variant EGDSLRTYIAN / GKNNRPS / SSRDSSGMQVF showed 2.65, 2.74, 3.07 (controls 2 of 9).
Variant EGDSLRYYYHN / GKNNRPS / SSRASCGFQVF showed nd, 3.61, nd (controls 3 of 9).
Variant EGDSLRYYWAN / GKNCRPS / SSRQSSGFQVF showed 4.68, nd, nd (controls 5 of 9).
Variant EGDSERYYYDN / TKNNRPS / SSRDSSGFQVF showed nd, nd, nd (controls 1 of 9).
Variant EGDSYRYYYAT / GKNNRPS / SSRDQSGFQVF showed 2.68, 2.31, 2.30 (controls 3 of 9).
Variant EGSSLRYCYAN / GKNNRPS / SSRQSSGFQVF showed 3.50, 3.92, nd (controls 5 of 9).
Variant EGMYLRYYYAN / GKNNRPS / SSRDLSGFQVF showed nd, 4.59, nd (controls 2 of 9).
Variant EGDSLLYYYAN / GKLDRPS / SSRDSSGFQVF showed 4.18, 4.95, 4.13 (controls 1 of 9).
Variant EGDSLRYYYAP / GKNNRAS / SSRDSSGFQVV showed 2.85, 2.53, 2.67 (controls 1 of 9).
Variant EGDSLRYYYAN / GKMNRPS / SSRDSSGFQVL showed 3.27, 4.06, 3.42 (controls 6 of 9).
Variant ELDSLIYYYAN / GKNNRPS / SSRDSDGFQVF showed nd, 2.88, 2.77 (controls 2 of 9).

The 5 strongest on average among those seen in every replicate, once more:

{"CDR-L1": "EGDSLRYVYAN", "CDR-L2": "GKNNRPS", "CDR-L3": "SSRDSSGFQVF", "log10 Kd (nM) by replicate": "1.91, 1.52, 1.29", "signal with controls": "3/9"}
{"CDR-L1": "EGDSLSYYYAN", "CDR-L2": "GKNNRPS", "CDR-L3": "SSADSSGFQVF", "log10 Kd (nM) by replicate": "2.08, 1.72, 2.01", "signal with controls": "1/9"}
{"CDR-L1": "EGDSLRYYYAN", "CDR-L2": "GANNRPI", "CDR-L3": "MSRDSSGFQVF", "log10 Kd (nM) by replicate": "2.03, 1.99, 1.85", "signal with controls": "1/9"}
{"CDR-L1": "EGDSLRYYYAN", "CDR-L2": "GLNNRPD", "CDR-L3": "SSRDSSEFQVF", "log10 Kd (nM) by replicate": "2.22, 2.37, 1.76", "signal with controls": "4/9"}
{"CDR-L1": "EGDSLRYYYAN", "CDR-L2": "GKNNRPS", "CDR-L3": "SSRDSSFFQVF", "log10 Kd (nM) by replicate": "2.14, 2.26, 2.49", "signal with controls": "3/9"}

Empty control strains, which show no peptide, gave a signal in 28% of pairings with library AAYL52; the median was 3.91 and 95% of these signals were weaker than 2.90. No background was subtracted. Also given: how often the same scFv was detected with the empty control strains.